In the experiment the target is Trypsin (Sus scrofa, UniProt P00761). Kind of experiment: Inhibitory activity against porcine pancreatic trypsin (TRP).

Amino acid sequences for entries named in this document (tags omitted).
UniProt P00761, whole entry: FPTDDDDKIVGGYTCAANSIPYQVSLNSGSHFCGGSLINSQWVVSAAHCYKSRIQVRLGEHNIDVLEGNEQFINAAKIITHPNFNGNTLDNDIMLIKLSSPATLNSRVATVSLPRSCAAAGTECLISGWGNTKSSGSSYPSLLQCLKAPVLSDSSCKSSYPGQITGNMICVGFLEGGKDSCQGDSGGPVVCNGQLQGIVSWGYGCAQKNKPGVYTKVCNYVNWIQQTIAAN

Experimental findings from ChEMBL document CHEMBL1133367, “Structure-activity relationship studies of chloromethyl ketone derivatives for selective human chymase inhibitors” (Bioorg Med Chem Lett, 2000) are described below.

A value given as a limit tells only on which side of the number the result lay.

As usually defined, the IC50 is the concentration that gives 50% inhibition. A high value points to lower potency. For `O=C(CCc1ccccc1F)N[C@@H](Cc1ccccc1)C(=O)CCl`, the half-inhibitory concentration (IC50) is > 1000 µM.
